According to ChEMBL document CHEMBL3603807, “Discovery of 2-arylamino-4-(1-methyl-3-isopropylsulfonyl-4-pyrazol-amino)pyrimidines as potent anaplastic lymphoma kinase (ALK) inhibitors” (Bioorg Med Chem Lett, 2015):

Assays:
NCI-H2228 = test: Antiproliferative activity against human NCI-H2228 cells assessed as inhibition of cell proliferation incubated for 96 hrs by cell-titer-Glo assay; format: functional, cell-based; conditions: NCI-H2228, 96 h
[1] = Antiproliferative activity against human KARPAS299 cells assessed as inhibition of cell proliferation incubated for 96 hrs by cell-titer-Glo assay; format: functional, cell-based; conditions: KARPAS-299, 96 h

| Structure (SMILES) | IC50 (NCI-H2228) [µM] | IC50 [1] [µM] |
| --- | --- | --- |
| Cc1cc(Nc2ncc(Cl)c(Nc3cn(C)nc3S(=O)(=O)C(C)C)n2)c(OC(C)C)cc1C1CCN(C)CC1 | 0.096 |  |
| Cc1cc(Nc2ncc(Cl)c(Nc3cn(C)nc3S(=O)(=O)C(C)C)n2)c(OC2CC2)cc1C1CCN(C)CC1 | 0.052 |  |
| CC(C)S(=O)(=O)c1nn(C)cc1Nc1nc(Nc2cc(F)c(C3CCN(C)CC3)cc2OC2CC2)ncc1Cl | 0.125 | 0.017 |
| Cc1cc(Nc2ncc(Cl)c(Nc3cn(C)nc3S(=O)(=O)C(C)C)n2)c(OC2CC2)cc1C1CCN(C(C)C)CC1 | 0.058 |  |
